Sequences of proteins named here, by UniProt entry; tags and fusion partners are left off.
UniProt P98170, whole entry: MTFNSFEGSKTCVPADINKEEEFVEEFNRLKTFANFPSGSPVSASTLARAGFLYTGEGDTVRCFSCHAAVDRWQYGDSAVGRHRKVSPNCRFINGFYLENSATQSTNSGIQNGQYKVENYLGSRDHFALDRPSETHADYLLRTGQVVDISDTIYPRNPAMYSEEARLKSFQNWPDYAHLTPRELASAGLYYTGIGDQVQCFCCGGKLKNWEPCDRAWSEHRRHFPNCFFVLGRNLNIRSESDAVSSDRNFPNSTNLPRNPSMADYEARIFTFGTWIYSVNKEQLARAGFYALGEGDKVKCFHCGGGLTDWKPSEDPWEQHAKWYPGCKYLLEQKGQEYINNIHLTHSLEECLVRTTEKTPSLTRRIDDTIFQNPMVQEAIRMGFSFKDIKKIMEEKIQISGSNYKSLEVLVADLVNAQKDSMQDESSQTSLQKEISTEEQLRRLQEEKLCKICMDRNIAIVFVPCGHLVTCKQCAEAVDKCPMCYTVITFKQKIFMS

In ChEMBL document CHEMBL1138860, “Design, synthesis, and evaluation of a potent, cell-permeable, conformationally constrained second mitochondria derived activator of caspase (Smac) mimetic” (J Med Chem, 2006):

Molecular target: E3 ubiquitin-protein ligase XIAP (Homo sapiens, UniProt P98170)
Experiment: Binding affinity to recombinant XIAP BIR3 by FP assay

In the case of CC[C@H](N)C(=O)N[C@H]1CCC[C@H]2CC[C@@H](C(=O)NC(c3ccccc3)c3ccccc3)N2C1=O, the Ki is reported as 25 nM.
